The values that follow come from ChEMBL document CHEMBL2203054, “Synthesis and biological evaluation of a selective N- and p/q-type calcium channel agonist” (ACS Med Chem Lett, 2012).

By UniProt entry, the sequences of proteins in these tests, tags left out.
UniProt Q00975, whole entry: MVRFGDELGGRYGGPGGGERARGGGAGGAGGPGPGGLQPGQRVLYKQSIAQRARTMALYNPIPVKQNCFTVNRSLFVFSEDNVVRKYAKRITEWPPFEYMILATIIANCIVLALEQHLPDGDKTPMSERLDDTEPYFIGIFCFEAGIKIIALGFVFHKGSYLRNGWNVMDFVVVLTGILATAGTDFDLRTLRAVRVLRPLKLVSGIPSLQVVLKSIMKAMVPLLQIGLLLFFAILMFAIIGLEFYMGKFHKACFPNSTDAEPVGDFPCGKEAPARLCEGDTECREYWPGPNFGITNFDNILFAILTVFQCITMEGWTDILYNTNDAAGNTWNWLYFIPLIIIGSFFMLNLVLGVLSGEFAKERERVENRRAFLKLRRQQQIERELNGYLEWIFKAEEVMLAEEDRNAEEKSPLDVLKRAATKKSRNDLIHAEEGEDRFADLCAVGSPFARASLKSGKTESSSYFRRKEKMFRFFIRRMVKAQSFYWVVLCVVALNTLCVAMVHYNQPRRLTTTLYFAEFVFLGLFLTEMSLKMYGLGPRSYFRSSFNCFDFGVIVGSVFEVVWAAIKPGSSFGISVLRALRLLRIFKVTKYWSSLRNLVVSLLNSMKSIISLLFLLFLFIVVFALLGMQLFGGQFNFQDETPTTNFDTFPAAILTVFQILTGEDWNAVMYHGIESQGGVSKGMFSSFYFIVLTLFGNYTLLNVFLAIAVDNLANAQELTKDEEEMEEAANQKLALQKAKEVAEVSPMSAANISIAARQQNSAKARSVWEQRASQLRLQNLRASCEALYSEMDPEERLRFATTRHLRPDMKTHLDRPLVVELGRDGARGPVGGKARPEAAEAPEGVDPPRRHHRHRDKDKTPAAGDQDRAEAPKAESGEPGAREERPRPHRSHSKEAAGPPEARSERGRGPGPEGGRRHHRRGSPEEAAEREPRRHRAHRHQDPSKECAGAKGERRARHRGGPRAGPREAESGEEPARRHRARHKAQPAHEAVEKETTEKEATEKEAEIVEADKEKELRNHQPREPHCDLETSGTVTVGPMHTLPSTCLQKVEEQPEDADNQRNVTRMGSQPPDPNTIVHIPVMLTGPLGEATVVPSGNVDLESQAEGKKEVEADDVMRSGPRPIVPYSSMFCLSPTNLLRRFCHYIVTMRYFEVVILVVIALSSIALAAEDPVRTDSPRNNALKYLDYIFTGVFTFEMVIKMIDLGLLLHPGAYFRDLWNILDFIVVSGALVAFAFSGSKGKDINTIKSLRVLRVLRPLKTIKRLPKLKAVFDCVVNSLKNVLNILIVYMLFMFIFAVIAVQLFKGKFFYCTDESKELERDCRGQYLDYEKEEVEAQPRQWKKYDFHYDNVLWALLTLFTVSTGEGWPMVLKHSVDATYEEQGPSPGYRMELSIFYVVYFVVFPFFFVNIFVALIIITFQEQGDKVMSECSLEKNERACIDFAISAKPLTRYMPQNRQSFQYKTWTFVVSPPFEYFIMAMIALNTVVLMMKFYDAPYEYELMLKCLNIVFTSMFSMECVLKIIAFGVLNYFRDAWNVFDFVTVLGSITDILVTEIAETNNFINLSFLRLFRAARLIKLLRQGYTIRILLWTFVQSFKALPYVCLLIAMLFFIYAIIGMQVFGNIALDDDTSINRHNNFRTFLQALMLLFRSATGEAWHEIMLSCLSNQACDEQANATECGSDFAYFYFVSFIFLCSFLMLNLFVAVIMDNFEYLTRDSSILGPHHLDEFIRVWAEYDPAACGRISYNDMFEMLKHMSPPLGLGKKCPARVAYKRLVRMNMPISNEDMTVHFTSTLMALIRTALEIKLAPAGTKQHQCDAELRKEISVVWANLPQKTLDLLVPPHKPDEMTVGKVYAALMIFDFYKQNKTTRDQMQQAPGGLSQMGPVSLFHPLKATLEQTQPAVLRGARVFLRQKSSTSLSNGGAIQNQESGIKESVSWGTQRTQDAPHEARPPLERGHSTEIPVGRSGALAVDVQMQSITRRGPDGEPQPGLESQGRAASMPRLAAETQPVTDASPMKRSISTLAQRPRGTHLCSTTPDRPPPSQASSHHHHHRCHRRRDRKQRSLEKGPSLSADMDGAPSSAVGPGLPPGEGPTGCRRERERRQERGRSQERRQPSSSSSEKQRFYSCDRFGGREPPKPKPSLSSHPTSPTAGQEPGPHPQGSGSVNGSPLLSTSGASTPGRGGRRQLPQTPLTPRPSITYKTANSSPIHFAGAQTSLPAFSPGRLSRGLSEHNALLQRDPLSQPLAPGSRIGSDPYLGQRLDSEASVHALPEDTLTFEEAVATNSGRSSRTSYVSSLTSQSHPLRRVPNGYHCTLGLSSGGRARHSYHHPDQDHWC

This assay has as its target Voltage-dependent N-type calcium channel subunit alpha-1B (Homo sapiens, UniProt Q00975). In words: Agonist activity at N-type Cav2.2 channel expressed in tsA201 cell assessed as calcium current by whole-cell patch clamp method. The format is functional, cell-based. (The patch-clamp technique gives a direct electrical read-out from membranes.)

`CC[C@H](CO)Nc1nc(NCc2ccccc2)c2ncn(C(C)C)c2n1` [SELICICLIB]: the EC50 is 27.6 µM.

For orientation: EC50 means the concentration that produces a half-maximal response.
